Key:
human α1A‐adrenoceptor [1] = biological target: T1, human α1A‐adrenoceptor (Homo sapiens, UniProt P35348); assay: ^3H‐cAMP accumulation, CHO‐α1A cells; type: cell-based; conditions: % of 10 µM forskolin response
T1 construct: expressed in transfected cells; host or cells: CHO-K1
T1 sequence (P35348 1-466): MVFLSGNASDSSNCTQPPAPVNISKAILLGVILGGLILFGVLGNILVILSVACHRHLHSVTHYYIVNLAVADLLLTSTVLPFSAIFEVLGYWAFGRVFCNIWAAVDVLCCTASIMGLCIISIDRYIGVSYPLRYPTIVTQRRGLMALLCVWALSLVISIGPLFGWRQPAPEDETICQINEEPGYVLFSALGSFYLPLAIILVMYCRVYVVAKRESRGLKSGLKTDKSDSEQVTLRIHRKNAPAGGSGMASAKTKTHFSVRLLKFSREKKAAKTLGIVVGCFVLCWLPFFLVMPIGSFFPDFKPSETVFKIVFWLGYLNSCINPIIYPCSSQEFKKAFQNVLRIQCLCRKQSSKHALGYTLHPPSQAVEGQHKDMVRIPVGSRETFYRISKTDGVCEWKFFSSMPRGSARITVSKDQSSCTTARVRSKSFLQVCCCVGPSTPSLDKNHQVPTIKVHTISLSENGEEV

By UniProt entry, the sequences of proteins in these tests, tags left out.
UniProt P25100, whole entry: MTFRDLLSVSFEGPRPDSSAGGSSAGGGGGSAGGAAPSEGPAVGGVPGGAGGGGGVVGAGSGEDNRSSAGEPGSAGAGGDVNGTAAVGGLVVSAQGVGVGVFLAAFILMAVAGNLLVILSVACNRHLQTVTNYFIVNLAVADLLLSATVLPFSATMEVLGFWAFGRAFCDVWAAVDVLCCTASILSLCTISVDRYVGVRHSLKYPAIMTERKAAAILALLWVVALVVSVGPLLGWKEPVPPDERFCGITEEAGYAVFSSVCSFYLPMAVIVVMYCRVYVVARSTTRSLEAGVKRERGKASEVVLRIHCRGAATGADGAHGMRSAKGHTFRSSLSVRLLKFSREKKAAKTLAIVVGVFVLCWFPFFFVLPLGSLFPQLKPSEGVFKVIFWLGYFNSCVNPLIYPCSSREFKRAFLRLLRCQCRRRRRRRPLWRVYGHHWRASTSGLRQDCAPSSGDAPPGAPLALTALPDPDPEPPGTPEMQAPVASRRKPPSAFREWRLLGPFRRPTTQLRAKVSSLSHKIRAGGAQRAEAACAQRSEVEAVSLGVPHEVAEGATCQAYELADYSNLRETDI
UniProt P35368, whole entry: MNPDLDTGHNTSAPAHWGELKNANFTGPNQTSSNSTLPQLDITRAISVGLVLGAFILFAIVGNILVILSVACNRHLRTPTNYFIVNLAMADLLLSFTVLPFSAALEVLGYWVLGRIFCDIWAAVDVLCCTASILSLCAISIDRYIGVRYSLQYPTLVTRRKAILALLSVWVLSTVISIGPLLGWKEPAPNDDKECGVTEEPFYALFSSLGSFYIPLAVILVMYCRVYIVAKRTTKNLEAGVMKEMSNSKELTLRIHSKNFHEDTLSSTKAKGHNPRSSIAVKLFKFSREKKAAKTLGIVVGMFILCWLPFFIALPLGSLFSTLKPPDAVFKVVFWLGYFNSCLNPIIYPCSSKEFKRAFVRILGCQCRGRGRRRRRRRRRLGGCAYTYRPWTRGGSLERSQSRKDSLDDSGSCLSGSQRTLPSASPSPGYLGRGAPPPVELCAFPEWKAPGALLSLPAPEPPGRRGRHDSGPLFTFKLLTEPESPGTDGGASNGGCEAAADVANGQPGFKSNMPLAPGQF

[2] = biological target: T2, human α1D‐adrenoceptor (full length) (Homo sapiens, UniProt P25100); assay: Intracellular free calcium mobilization, CHO‐α1D cells; type: cell-based
T2 construct: human α1D‐adrenoceptor (full length) were used; expressed in transfected cells; host or cells: CHO-K1

human α1A‐adrenoceptor [3] = biological target: T1, human α1A‐adrenoceptor; assay: ^3H‐cAMP accumulation in the presence of 10 μM forskolin, CHO‐α1A cells; type: cell-based; conditions: fold increase of the forskolin response
[4] = biological target: T2, human α1D‐adrenoceptor (full length); assay: ERK1/2‐phosphorylation (Surefire Alphascreen), CHO‐α1D cells; type: cell-based
[5] = system: parental CHO cell line without any transfected receptors; assay: Forskolin‐stimulated cAMP accumulation, parent CHO cells without transfected receptors; type: cell-based, Chinese hamster
[6] = system: parental CHO cell line without any transfected receptors; assay: ERK1/2‐phosphorylation, parent CHO cells without transfected receptors; type: cell-based, Chinese hamster
human α1A‐adrenoceptor [7] = biological target: T1, human α1A‐adrenoceptor; assay: ERK1/2‐phosphorylation (Surefire Alphascreen), CHO‐α1A cells; type: cell-based
human α1B‐adrenoceptor [8] = biological target: T3, human α1B‐adrenoceptor (Homo sapiens, UniProt P35368); assay: ERK1/2‐phosphorylation (Surefire Alphascreen), CHO‐α1B cells; type: cell-based
T3 construct: expressed in transfected cells; host or cells: CHO-K1

human α1A‐adrenoceptor [9] = biological target: T1, human α1A‐adrenoceptor; assay: Intracellular free calcium mobilization, CHO‐α1A cells; type: cell-based
human α1B‐adrenoceptor [10] = biological target: T3, human α1B‐adrenoceptor; assay: Intracellular free calcium mobilization, CHO‐α1B cells; type: cell-based
[11] = biological target: T2, human α1D‐adrenoceptor (full length); assay: ^3H‐prazosin whole‐cell radioligand binding, CHO‐α1D cells

CC(Cc1ccc(O)cc1)NCC(O)c1cc(O)cc(O)c1 (centres unmarked) [Fenoterol]
cAMP accumulation % forskolin (human α1A‐adrenoceptor [1]): No response
Intracellular calcium release % Ionomycin at 100 µM [2]: 4.4 ± 1.8%
cAMP accumulation (in presence of forskolin) Fold increase (human α1A‐adrenoceptor [3]): No response
ERK1/2‐phosphorylation % PDBu [4]: 7.6 ± 1.4%
cAMP accumulation (in presence of forskolin) Log EC50 [5]: No response
ERK1/2-phosphorylation Log EC50 [6]: No response
ERK1/2‐phosphorylation % PDBu (human α1A‐adrenoceptor [7]): 33.8 ± 6.7%
ERK1/2‐phosphorylation % PDBu (human α1B‐adrenoceptor [8]): 33.8 ± 7.3%
Intracellular calcium release % ionomycin (human α1A‐adrenoceptor [9]): 30.3 ± 7.6%
Intracellular calcium release % ionomycin (human α1B‐adrenoceptor [10]): 38.0 ± 3.2%

Nc1cc(Cl)c(N=C2NCCN2)c(Cl)c1 [para‐amino‐clonidine]
Affinity selectivity ratio α1B vs α1D [11]: 1.7 fold
